Results: publication PMC7594198 (International Journal of Nanomedicine, 2020)

Assays:
[1] = cited from earlier work
[2] = test system: peptide probe immobilized on carboxyl-GO chip; assay: SPR selectivity test with interfering proteins, spiked 10% serum; type: binding; settings: protein 500 pM, 60 μL/min, measured six times
[3] = test system: peptide probe immobilized on carboxyl-GO chip; assay: SPR detection of hCG in clinical serum samples, peptide-carboxyl-GO chip; type: binding; settings: for mean hCG SPR angle: mean ± SD
[4] = test system: peptide aptamer immobilized on carboxyl-GO chip; assay: SPR angle shift on hCG binding to peptide, carboxyl-GO-based chip, PBS buffer; settings: for SPR angle shift: carboxyl-GO chip, 30 μL/min
[5] = until pre-pregnancy levels are reached; cited from earlier work
[6] = test system: peptide aptamer immobilized on GO chip; assay: SPR angle shift on hCG binding to peptide, GO-based chip, PBS buffer; settings: for SPR angle shift: GO chip, 30 μL/min
[7] = test system: peptide probe immobilized on carboxyl-GO chip; assay: SPR selectivity test with interfering proteins, PBS buffer; type: binding; settings: for average SPR angle shift: protein 500 pM, PBS buffer, 60 μL/min, measured six times

SPR angle shift ([4]; hCG 1 pM): 0.287 m^o | θSPR at detection limit ([4]; hCG 1 pM, carboxyl-GO-based chip, n = 3): 0.287 ± 0.03 m^o | SPR angle shift ([4]; hCG 10 pM): 1.264 m^o | SPR angle shift ([4]; hCG 50 pM): 3.527 m^o | SPR angle shift ([4]; hCG 100 pM): 7.532 m^o | SPR angle shift ([4]; hCG 250 pM): 10.073 m^o | SPR angle shift ([4]; hCG 500 pM): 16.476 m^o | SPR angle shift ([4]; hCG 1 nM): 32.118 m^o | Detection Limit ([6]; GO-based chip, n = 3): 10 pM | SPR angle shift ([6]; hCG 10 pM): 0.809 m^o | θSPR at detection limit ([6]; hCG 10 pM, GO-based chip, n = 3): 0.81 ± 0.1 m^o | SPR angle shift ([6]; hCG 50 pM): 2.467 m^o | SPR angle shift ([6]; hCG 100 pM): 6.106 m^o | SPR angle shift ([6]; hCG 250 pM): 8.334 m^o | SPR angle shift ([6]; hCG 500 pM): 11.557 m^o | SPR angle shift ([6]; hCG 1 nM): 22.155 m^o
Substance: Human chorionic gonadotropin [hCG]
Detection Limit ([1]; ELISA, serum samples): 18 mIU/mL | Detection Limit ([1]; ELISA, urine samples): 17 mIU/mL | Detection Limit ([1]; Electrochemistry (LPCs-SnS2 and AuNPs), serum samples): 6.4 pg/mL | Detection Limit ([1]; Electrochemistry (silver nanoparticles), serum samples): 0.4 mIU/mL | Detection Limit ([1]; Fluorescent (graphene oxide), buffer samples): 20 mIU/mL | θSPR at detection limit ([1]; GO-COOH-based SPR biosensor, serum of pregnant women (14 weeks), 1.15 pM): 1.56 ± 0.2 m^o | average SPR angle shift [2]: 19.13 m^o | mean hCG SPR angle ([3]; FDSW group (n = 6), 5k-fold, P=0.004 vs NPW): 44.27 ± 13.29 m^o | mean hCG SPR angle ([3]; FDSW group (n = 6), 10k-fold, P=0.013 vs NPW): 22.53 ± 5.58 m^o | SPR angle shift ([3]; FDSW-1, serum 5k-fold (76.4 pM)): 41.88 m^o | SPR angle shift ([3]; FDSW-1, serum 10k-fold): 21.76 m^o | SPR angle shift ([3]; FDSW-1, serum 200k-fold (1.9 pM)): 0.97 m^o | SPR angle shift ([3]; FDSW-2, serum 5k-fold (135 pM)): 66.69 m^o | SPR angle shift ([3]; FDSW-2, serum 10k-fold): 21.56 m^o | SPR angle shift ([3]; FDSW-2, serum 200k-fold (3.4 pM)): 1.25 m^o | SPR angle shift ([3]; FDSW-3, serum 5k-fold (97.8 pM)): 44.48 m^o | SPR angle shift ([3]; FDSW-3, serum 10k-fold): 19.26 m^o | SPR angle shift ([3]; FDSW-3, serum 200k-fold (2.4 pM)): 6.74 m^o | SPR angle shift ([3]; FDSW-4, serum 5k-fold (83.7 pM)): 30.18 m^o | SPR angle shift ([3]; FDSW-4, serum 10k-fold): 17.79 m^o | SPR angle shift ([3]; FDSW-4, serum 200k-fold (2.1 pM)): 4.75 m^o | SPR angle shift ([3]; FDSW-5, serum 5k-fold (86.2 pM)): 32.33 m^o | SPR angle shift ([3]; FDSW-5, serum 10k-fold): 21.37 m^o | SPR angle shift ([3]; FDSW-5, serum 200k-fold (2.2 pM)): 2.47 m^o | SPR angle shift ([3]; FDSW-6, serum 5k-fold (105.1 pM)): 50.05 m^o | SPR angle shift ([3]; FDSW-6, serum 10k-fold): 33.46 m^o | SPR angle shift ([3]; FDSW-6, serum 200k-fold (2.6 pM)): 0.49 m^o | mean hCG SPR angle ([3]; NPW group (n = 4), 5k-fold, P=0.004 vs FDSW): 17.43 ± 2.60 m^o | mean hCG SPR angle ([3]; NPW group (n = 4), 10k-fold, P=0.013 vs FDSW): 11.55 ± 4.87 m^o | SPR angle shift ([3]; NPW-1, 15 weeks, serum 5k-fold (32.8 pM)): 17.83 m^o | SPR angle shift ([3]; NPW-1, 15 weeks, serum 10k-fold (16.4 pM)): 9.27 m^o | SPR angle shift ([3]; NPW-2, 12 weeks, serum 5k-fold (34.1 pM)): 17.67 m^o | SPR angle shift ([3]; NPW-2, 12 weeks, serum 10k-fold (17.0 pM)): 11.13 m^o | SPR angle shift ([3]; NPW-3, 14 weeks, serum 5k-fold (25.3 pM)): 13.95 m^o | SPR angle shift ([3]; NPW-3, 14 weeks, serum 10k-fold (12.65 pM)): 7.32 m^o | SPR angle shift ([3]; NPW-4, 17 weeks, serum 5k-fold (37.07 pM)): 20.25 m^o | SPR angle shift ([3]; NPW-4, 17 weeks, serum 10k-fold (18.53 pM)): 18.46 m^o | θSPR at LOD ([3]; hCG 1.9 pM in serum, carboxyl-GO chip, n = 3): 0.97 ± 0.1 m^o | half-life [5]: 24 to 36 h | average SPR angle shift [7]: 17.19 m^o

Substance: human serum albumin [HSA]
average SPR angle shift [2]: 2.41 m^o | interference signal ([7]; 500 pM, carboxyl-GO-based SPR aptasensor, PBS and spiked 10% serum): close to that of a blank solution | average SPR angle shift [7]: 1.52 m^o

Read-outs that look alike come from different tables or passages of the source. One block for each substance: values may come before it.
